The values below come from PubChem BioAssay.

Protein sequences, listed by entry. Tags and fused reporters are not part of them. Lines headed by an entry give the natural chain unless they say otherwise; changes in a name come on top.
UniProt Q96LD8: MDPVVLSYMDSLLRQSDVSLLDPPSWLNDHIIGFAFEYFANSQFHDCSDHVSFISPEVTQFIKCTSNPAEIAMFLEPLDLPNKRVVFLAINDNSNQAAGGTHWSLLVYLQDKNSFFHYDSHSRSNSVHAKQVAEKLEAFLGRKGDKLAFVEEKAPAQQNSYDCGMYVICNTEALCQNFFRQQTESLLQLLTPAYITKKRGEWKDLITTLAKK
UniProt Q9GZR1: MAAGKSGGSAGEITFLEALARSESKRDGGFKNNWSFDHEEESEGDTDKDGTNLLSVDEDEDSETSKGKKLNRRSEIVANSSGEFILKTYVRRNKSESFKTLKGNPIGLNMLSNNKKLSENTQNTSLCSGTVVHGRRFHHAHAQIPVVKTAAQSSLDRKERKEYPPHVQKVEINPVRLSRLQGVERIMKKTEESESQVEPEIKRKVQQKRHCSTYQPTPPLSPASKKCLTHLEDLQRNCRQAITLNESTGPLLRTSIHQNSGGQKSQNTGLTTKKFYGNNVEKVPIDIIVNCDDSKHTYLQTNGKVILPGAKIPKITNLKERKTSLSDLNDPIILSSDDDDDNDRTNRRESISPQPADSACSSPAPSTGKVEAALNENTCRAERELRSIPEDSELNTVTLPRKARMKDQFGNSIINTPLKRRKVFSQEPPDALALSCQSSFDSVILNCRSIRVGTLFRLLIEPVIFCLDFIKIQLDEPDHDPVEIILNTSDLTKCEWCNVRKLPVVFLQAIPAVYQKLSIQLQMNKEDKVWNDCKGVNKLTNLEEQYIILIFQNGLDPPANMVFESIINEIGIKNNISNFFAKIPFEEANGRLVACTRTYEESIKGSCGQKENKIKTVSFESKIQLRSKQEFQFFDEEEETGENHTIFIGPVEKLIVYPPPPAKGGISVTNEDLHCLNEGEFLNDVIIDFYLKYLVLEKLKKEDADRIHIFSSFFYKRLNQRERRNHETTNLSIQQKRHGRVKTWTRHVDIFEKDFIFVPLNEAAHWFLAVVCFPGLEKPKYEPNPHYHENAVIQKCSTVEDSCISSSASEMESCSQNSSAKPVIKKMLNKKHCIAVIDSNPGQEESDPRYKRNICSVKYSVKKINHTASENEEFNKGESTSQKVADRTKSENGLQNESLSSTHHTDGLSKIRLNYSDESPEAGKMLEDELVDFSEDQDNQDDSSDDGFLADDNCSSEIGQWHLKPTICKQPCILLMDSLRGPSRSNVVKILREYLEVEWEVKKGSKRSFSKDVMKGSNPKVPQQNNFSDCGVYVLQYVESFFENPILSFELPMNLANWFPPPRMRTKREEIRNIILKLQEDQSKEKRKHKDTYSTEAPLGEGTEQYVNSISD
UniProt Q9BQF6: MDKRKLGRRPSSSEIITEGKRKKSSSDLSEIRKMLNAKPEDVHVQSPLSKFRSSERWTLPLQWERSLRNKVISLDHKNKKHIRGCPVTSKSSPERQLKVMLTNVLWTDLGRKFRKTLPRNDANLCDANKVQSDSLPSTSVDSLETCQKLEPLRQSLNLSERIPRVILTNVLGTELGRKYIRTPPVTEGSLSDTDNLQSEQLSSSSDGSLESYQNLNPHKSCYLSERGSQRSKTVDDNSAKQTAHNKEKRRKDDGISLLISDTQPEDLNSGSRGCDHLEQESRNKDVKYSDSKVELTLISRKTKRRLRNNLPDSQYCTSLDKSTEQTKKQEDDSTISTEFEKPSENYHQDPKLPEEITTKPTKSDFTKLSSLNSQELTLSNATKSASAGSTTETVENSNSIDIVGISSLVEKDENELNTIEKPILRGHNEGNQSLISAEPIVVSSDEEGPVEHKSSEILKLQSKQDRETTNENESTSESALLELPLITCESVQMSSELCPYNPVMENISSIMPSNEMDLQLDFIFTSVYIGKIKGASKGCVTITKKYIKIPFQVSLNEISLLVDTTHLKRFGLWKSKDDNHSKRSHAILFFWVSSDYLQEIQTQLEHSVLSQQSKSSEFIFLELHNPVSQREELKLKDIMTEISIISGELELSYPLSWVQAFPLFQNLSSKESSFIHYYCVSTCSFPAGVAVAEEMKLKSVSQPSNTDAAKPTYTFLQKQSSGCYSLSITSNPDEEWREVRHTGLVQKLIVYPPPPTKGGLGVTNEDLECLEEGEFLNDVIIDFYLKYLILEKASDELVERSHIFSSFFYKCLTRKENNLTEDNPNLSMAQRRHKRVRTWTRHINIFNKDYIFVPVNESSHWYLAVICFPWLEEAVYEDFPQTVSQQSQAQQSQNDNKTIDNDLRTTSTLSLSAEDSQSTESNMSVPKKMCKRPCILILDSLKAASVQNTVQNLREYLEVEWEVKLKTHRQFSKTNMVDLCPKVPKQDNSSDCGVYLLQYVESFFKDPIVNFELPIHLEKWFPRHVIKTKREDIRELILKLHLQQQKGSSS
UniProt P42574: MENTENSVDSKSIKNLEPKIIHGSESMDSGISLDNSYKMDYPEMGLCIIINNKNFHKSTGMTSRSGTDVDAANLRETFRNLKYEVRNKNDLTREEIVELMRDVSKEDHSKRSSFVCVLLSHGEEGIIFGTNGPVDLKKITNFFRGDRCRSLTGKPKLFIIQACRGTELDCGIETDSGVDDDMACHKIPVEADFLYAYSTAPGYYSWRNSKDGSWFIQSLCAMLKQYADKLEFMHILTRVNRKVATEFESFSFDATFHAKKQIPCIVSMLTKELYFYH

Molecules are shown by their SMILES. The list shows a part of the results, in another mix than the full data. Active and inactive are the calls of the source.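 How the source made its calls, unless noted: active means mean inhibition above about 50% in the one-dose retest (limit read from the data); inactive means the rest.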

For assay [1], the target named is Sentrin-specific protease 8 (Homo sapiens) (UniProt Q96LD8). The assay can be described thus: SENP8 protease inhibitors, retest, confirmation, biochemical, luminescence, single concentration (AID 488912;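 active means mean inhibition across replicates above about 50%, limit read from the data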). Conditions: Recombinant SENP8, Z-RLRGG-aminoluciferin luminescence, 60 min; at 12.5 µM; stronger effect = higher value.
The target in assay [2] is Sentrin-specific protease 6 (Homo sapiens) (UniProt Q9GZR1). The assay can be described thus: SENP6 protease inhibitors, confirmation, biochemical, luminescence, single concentration (AID 488915). Conditions: recombinant SENP6, Z-RLRGG-aminoluciferin luminescence; at 12.5 µM; stronger effect = higher value.
Assay [3] addresses Sentrin-specific protease 7 (Homo sapiens) (UniProt Q9BQF6). The assay can be described thus: SENP7 protease inhibitors, retest, confirmation, biochemical, luminescence, single concentration (AID 488917). The settings on record: recombinant SENP7, Z-RLRGG-aminoluciferin luminescence, 40 min; at 12.5 µM; stronger effect = higher value.
The next assay addresses Caspase-3 (Homo sapiens) (UniProt P42574). The assay can be described thus: caspase-3 protease inhibitors, confirmation, selectivity assay for SENP inhibitor project, biochemical, single concentration (AID 488918;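 active means mean inhibition above about 50%, limit read from the data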;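 further: plate controls were enzyme with DMSO for no effect and wells without caspase-3 for full effect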). The settings on record: purified caspase-3, Z-DEVD-aminoluciferin luminescence, 60 min; at 12.5 µM; stronger effect = higher value.
The nature of assay [4]: luciferase luminescence interference by compounds, confirmation, artefact control for SENP inhibitor project, biochemical, single concentration, SENP8 reaction pre-completed (AID 488919;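 active means mean inhibition above about 50% when retested at one dose, limit read from the data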;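 further: plate controls were DMSO wells with completed reaction for no effect and substrate without enzyme for full effect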). Conditions: Pre-incubated SENP8/Z-RLRGG-aminoluciferin, at 12.5 µM, stronger effect = higher value.
A short description of assay [5]: fluorescence interference of Apaf-1 inhibitor hits, dose response, artefact control for Apaf-1 inhibitor project (AID 588538; call rule not given here). Conditions: fluorescence interference counterscreen, Apaf-1 assay format. (The purpose of a counterscreen is to sort out artefacts and off-target activity.)

By inhibition is commonly meant the drop in the measured response relative to a control, in per cent. Turning to `Oc1ccc(/C=C/c2cc(O)cc(O)c2)cc1`, the inhibition in assay [1] is active: 85.1%; in assay [2] it was active: 77.3%; in assay [3], active: 92.6%; with Caspase-3 (Homo sapiens), active: 61.2%; in assay [4] it was active: 79.9%.

The IC50 is the concentration that inhibits the measured activity by half. As for `CCCCC(CC)CN=C(N)NC(N)=NCCCCCCN=C(N)NC(N)=NCC(CC)CCCC` (stereo unspecified), the IC50 in assay [5] is inactive: > 100 µM.
